US20090099157A1, “TETRAHYDRO-PYRAZOLO-PYRIDINE THIOETHER MODULATORS OF CATHEPSIN S” (priority 2007, published 2009)

Protein sequences, listed by entry. Tags and fused reporters are not part of them. Residues count along the entry.
UniProt P25774, 115-331: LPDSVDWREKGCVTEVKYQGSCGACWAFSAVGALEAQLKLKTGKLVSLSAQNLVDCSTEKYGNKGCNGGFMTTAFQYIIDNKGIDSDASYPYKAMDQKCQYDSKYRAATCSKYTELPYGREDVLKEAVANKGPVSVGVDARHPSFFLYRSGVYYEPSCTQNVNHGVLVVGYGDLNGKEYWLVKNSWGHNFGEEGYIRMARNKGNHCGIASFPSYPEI

Biological target: Recombinant human cathepsin S (CatS) (Homo sapiens, UniProt P25774)
Assay: biochemical

Compound	IC50
CS(=O)(=O)N1CCc2c(c(-c3ccc(C(F)(F)F)c(SCC(=O)N4CCOCC4)c3)nn2CC(O)CN2CC[C@H](CO)C2)C1 (stereo partly drawn) [Example 465, 1-[(3S)-3-(Hydroxymethyl)pyrrolidin-1-yl]-3-[5-(methylsulfonyl)-3-{3-[(2-morpholin-4-yl-2-oxoethyl)sulfanyl]-4-(trifluoromethyl)phenyl}-4,5,6,7-tetrahydro-1H-pyrazolo[4,3-c]pyridin-1-yl]propan-2-ol]	810 nM
O=C(CSc1cc(-c2nn(CC(O)CN3CCc4ccccc4C3)c3c2CNCC3)ccc1C(F)(F)F)N1CCCC1 (stereo not shown) [Example 313, 1-(3,4-Dihydroisoquinolin-2(1H)-yl)-3-(3-{3-[(2-oxo-2-pyrrolidin-1-ylethyl)sulfanyl]-4-(trifluoromethyl)phenyl}-4,5,6,7-tetrahydro-1H-pyrazolo[4,3-c]pyridin-1-yl)propan-2-ol]	1820 nM
CS(=O)(=O)N1CCc2c(c(-c3ccc(C(F)(F)F)c(SCCN4CCOC(CO)C4)c3)nn2CCCN2CCCCC2)C1 (stereo not shown) [Example 147, {4-[2-({5-[5-(Methylsulfonyl)-1-(3-piperidin-1-ylpropyl)-4,5,6,7-tetrahydro-1H-pyrazolo[4,3-c]pyridin-3-yl]-2-(trifluoromethyl)phenyl}sulfanyl)ethyl]morpholin-2-yl}methanol]	600 nM
CC(C)NCCSc1cc(-c2nn(CCCN3CCC(N4CCCC4=O)CC3)c3c2CN(S(C)(=O)=O)CC3)ccc1C(F)(F)F [Example 530, 1-[1-(3-{3-[3-({2-[(1-Methylethyl)amino]ethyl}sulfanyl)-4-(trifluoromethyl)phenyl]-5-(methylsulfonyl)-4,5,6,7-tetrahydro-1H-pyrazolo[4,3-c]pyridin-1-yl}propyl)piperidin-4-yl]pyrrolidin-2-one]	1200 nM
CC(C)(O)C1CCN(CC(O)Cn2nc(-c3ccc(C(F)(F)F)c(SCC(=O)N4CCCC4)c3)c3c2CCNC3)CC1 (stereo not shown) [Example 319, 1-[4-(1-Hydroxy-1-methylethyl)piperidin-1-yl]-3-(3-{3-[(2-oxo-2-pyrrolidin-1-ylethyl)sulfanyl]-4-(trifluoromethyl)phenyl}-4,5,6,7-tetrahydro-1H-pyrazolo[4,3-c]pyridin-1-yl)propan-2-ol]	1310 nM
OC(CN1CCC(O)(c2cccc(C(F)(F)F)c2)CC1)Cn1nc(-c2ccc(C(F)(F)F)c(SCCN3CCCCC3)c2)c2c1CCNC2 (stereo not shown) [Example 675, 1-[2-Hydroxy-3-(3-{3-[(2-piperidin-1-ylethyl)sulfanyl]-4-(trifluoromethyl)phenyl}-4,5,6,7-tetrahydro-1H-pyrazolo[4,3-c]pyridin-1-yl)propyl]-4-[3-(trifluoromethyl)phenyl]piperidin-4-ol]	890 nM
CC(=O)N1CCN(CCCn2nc(-c3ccc(C(F)(F)F)c(SCCN4CCCCC4)c3)c3c2CCN(S(C)(=O)=O)C3)CC1 [Example 56, 1-[4-(3-{5-Methanesulfonyl-3-[3-(2-piperidin-1-yl-ethylsulfanyl)-4-trifluoromethyl-phenyl]-4,5,6,7-tetrahydro-pyrazolo[4,3-c]pyridin-1-yl}-propyl)-piperazin-1-yl]-ethanone]	610 nM
CC(=O)N1CCN(CCSc2cc(-c3nn(CC(O)CN4CCC(NS(C)(=O)=O)CC4)c4c3CN(S(C)(=O)=O)CC4)ccc2C(F)(F)F)CC1 (stereo not shown) [Example 857, N-[1-(3-{3-[3-{[2-(4-Acetylpiperazin-1-yl)ethyl]sulfanyl}-4-(trifluoromethyl)phenyl]-5-(methylsulfonyl)-4,5,6,7-tetrahydro-1H-pyrazolo[4,3-c]pyridin-1-yl}-2-hydroxypropyl)piperidin-4-yl]methanesulfonamide]	650 nM
CS(=O)(=O)N1CCc2c(c(-c3ccc(C(F)(F)F)c(SCCN4CCCC(CO)C4)c3)nn2CC(O)CN2CCCC2)C1 (stereo not shown) [Example 388, 1-{3-[3-({2-[3-(Hydroxymethyl)piperidin-1-yl]ethyl}sulfanyl)-4-(trifluoromethyl)phenyl]-5-(methylsulfonyl)-4,5,6,7-tetrahydro-1H-pyrazolo[4,3-c]pyridin-1-yl}-3-pyrrolidin-1-ylpropan-2-ol]	580 nM
CS(=O)(=O)N1CCc2c(c(-c3ccc(C(F)(F)F)c(SCC(=O)NC4CCCC4)c3)nn2CC(O)CN2CCC(C(=O)N3CCOCC3)CC2)C1 (stereo not shown) [Example 846, N-Cyclopentyl-2-({5-[1-{2-hydroxy-3-[4-(morpholin-4-ylcarbonyl)piperidin-1-yl]propyl}-5-(methylsulfonyl)-4,5,6,7-tetrahydro-1H-pyrazolo[4,3-c]pyridin-3-yl]-2-(trifluoromethyl)phenyl}sulfanyl)acetamide]	480 nM
CCC(C)NC(=O)N1CCc2c(c(-c3ccc(C(F)(F)F)c(SCCN4CCC(F)CC4)c3)nn2C[C@@H](O)CN2CCCCC2)C1 (stereo partly drawn) [Example 523, 3-[3-{[2-(4-Fluoropiperidin-1-yl)ethyl]sulfanyl}-4-(trifluoromethyl)phenyl]-1-[(2S)-2-hydroxy-3-piperidin-1-ylpropyl]-N-(1-methylpropyl)-1,4,6,7-tetrahydro-5H-pyrazolo[4,3-c]pyridine-5-carboxamide]	490 nM
CS(=O)(=O)N1CCc2c(c(-c3ccc(C(F)(F)F)c(SCCN4CCC(O)CC4)c3)nn2CC(O)CN2CCC(N3CCCC3)CC2)C1 (stereo not shown) [Example 688, 1-(2-{[5-{1-[2-Hydroxy-3-(4-pyrrolidin-1-ylpiperidin-1-yl)propyl]-5-(methylsulfonyl)-4,5,6,7-tetrahydro-1H-pyrazolo[4,3-c]pyridin-3-yl}-2-(trifluoromethyl)phenyl]sulfanyl}ethyl)piperidin-4-ol]	580 nM

Further compounds by falling IC50, results first:

IC50	Compound
470 nM	COCC(=O)N1CCc2c(c(-c3ccc(C(F)(F)F)c(SCCN4CCC(F)CC4)c3)nn2C[C@@H](O)CN2CCCCC2)C1 [Example 373, (2S)-1-{3-[3-{[2-(4-Fluoropiperidin-1-yl)ethyl]sulfanyl}-4-(trifluoromethyl)phenyl]-5-[(methyloxy)acetyl]-4,5,6,7-tetrahydro-1H-pyrazolo[4,3-c]pyridin-1-yl}-3-piperidin-1-ylpropan-2-ol]
350 nM	CS(=O)(=O)N1CCc2c(c(-c3ccc(C(F)(F)F)c(SCCN4CCC(CCO)CC4)c3)nn2CCCN2CCC(N3CCCC3=O)CC2)C1 [Example 24, 1-(1-{3-[3-(3-{2-[4-(2-Hydroxy-ethyl)-piperidin-1-yl]-ethylsulfanyl}-4-trifluoromethyl-phenyl)-5-methanesulfonyl-4,5,6,7-tetrahydro-pyrazolo[4,3-c]pyridin-1-yl]-propyl}-piperidin-4-yl)-pyrrolidin-2-one]
320 nM	CS(=O)(=O)N1CCc2c(c(-c3ccc(C(F)(F)F)c(SCCN4CCC(C(F)(F)F)CC4)c3)nn2CCCN2CCC(N3CCCC3=O)CC2)C1 [Example 40, 1-{1-[3-(5-Methanesulfonyl-3-{4-trifluoromethyl-3-[2-(4-trifluoromethyl-piperidin-1-yl)-ethylsulfanyl]-phenyl}-4,5,6,7-tetrahydro-pyrazolo[4,3-c]pyridin-1-yl)-propyl]-piperidin-4-yl}-pyrrolidin-2-one]
290 nM	CC(=O)NC1CCN(CC(O)Cn2nc(-c3ccc(C(F)(F)F)c(SCCN4CCC(F)(F)C4)c3)c3c2CCN(S(C)(=O)=O)C3)C1 (stereo not shown) [Example 624, N-[1-(3-{3-[3-{[2-(3,3-Difluoropyrrolidin-1-yl)ethyl]sulfanyl}-4-(trifluoromethyl)phenyl]-5-(methylsulfonyl)-4,5,6,7-tetrahydro-1H-pyrazolo[4,3-c]pyridin-1-yl}-2-hydroxypropyl)pyrrolidin-3-yl]acetamide]
230 nM	CC(C)(C)OC(=O)NCCCC(=O)NCCSc1cc(-c2nn(CC(O)CN3CCC(N4CCCC4=O)CC3)c3c2CN(S(C)(=O)=O)CC3)ccc1C(F)(F)F (stereo not shown) [Example 124, (3-{2-[5-(1-{2-Hydroxy-3-[4-(2-oxo-pyrrolidin-1-yl)-piperidin-1-yl]-propyl}-5-methanesulfonyl-4,5,6,7-tetrahydro-1H-pyrazolo[4,3-c]pyridin-3-yl)-2-trifluoromethyl-phenylsulfanyl]-ethylcarbamoyl}-propyl)-carbamic acid tert-butyl ester]
90 nM	O=C(c1ccco1)N1CCc2c(c(-c3ccc(C(F)(F)F)c(SCCN4CCCCC4)c3)nn2CC(O)CN2CCC(N3CCCC3=O)CC2)C1 (stereo not shown) [Example 247, 1-(1-{3-[5-(Furan-2-ylcarbonyl)-3-{3-[(2-piperidin-1-ylethyl)sulfanyl]-4-(trifluoromethyl)phenyl}-4,5,6,7-tetrahydro-1H-pyrazolo[4,3-c]pyridin-1-yl]-2-hydroxypropyl}piperidin-4-yl)pyrrolidin-2-one]
80 nM	CC1C(=O)NCCN1CCSc1cc(-c2nn(CC(O)CN3CCC(N4CCCC4=O)CC3)c3c2CN(S(C)(=O)=O)CC3)ccc1C(F)(F)F (stereo not shown) [Example 167, 4-[2-({5-[1-{2-Hydroxy-3-[4-(2-oxopyrrolidin-1-yl)piperidin-1-yl]propyl}-5-(methylsulfonyl)-4,5,6,7-tetrahydro-1H-pyrazolo[4,3-c]pyridin-3-yl]-2-(trifluoromethyl)phenyl}sulfanyl)ethyl]-3-methylpiperazin-2-one]
70 nM	CS(=O)(=O)N1CCc2c(c(-c3ccc(C(F)(F)F)c(SCC(=O)N4CCOCC4)c3)nn2CCCN2CCC(N3CCCC3=O)CC2)C1 [Example 94, 1-[1-(3-{5-Methanesulfonyl-3-[3-(2-morpholin-4-yl-2-oxo-ethylsulfanyl)-4-trifluoromethyl-phenyl]-4,5,6,7-tetrahydro-pyrazolo[4,3-c]pyridin-1-yl}-propyl)-piperidin-4-yl]-pyrrolidin-2-one]
30 nM	CS(=O)(=O)N1CCc2c(c(-c3ccc(C(F)(F)F)c(SCCN4CCOCC4)c3)nn2CC(O)CN2CCN(c3ccccc3F)CC2)C1 (stereo not shown) [Example 742, 1-[4-(2-Fluorophenyl)piperazin-1-yl]-3-[5-(methylsulfonyl)-3-{3-[(2-morpholin-4-ylethyl)sulfanyl]-4-(trifluoromethyl)phenyl}-4,5,6,7-tetrahydro-1H-pyrazolo[4,3-c]pyridin-1-yl]propan-2-ol]
25 nM	CS(=O)(=O)N1CCc2c(c(-c3ccc(C(F)(F)F)c(SCCN4CCC(F)CC4)c3)nn2CC(O)CN2CCN(c3ccccc3O)CC2)C1 (stereo not shown) [Example 791, 2-[4-(3-{3-[3-{[2-(4-Fluoropiperidin-1-yl)ethyl]sulfanyl}-4-(trifluoromethyl)phenyl]-5-(methylsulfonyl)-4,5,6,7-tetrahydro-1H-pyrazolo[4,3-c]pyridin-1-yl}-2-hydroxypropyl)piperazin-1-yl]phenol]
